Results as given in PMC12135063, “Pharmaceutical Analysis of Protein–Peptide Coformulations and the Influence of Polysorbates” (Molecular Pharmaceutics, 2025).

Molecular target: T1, HSA (Homo sapiens, UniProt P02768)
T1 construct: albumin from human serum (HSA) (>96%), was purchased from Sigma-Aldrich UK; purchased Sigma-Aldrich UK; host or cells: human serum
Experiment: DSC thermal stability of HSA with MEDI7219 and polysorbates
Assay type: physicochemical
Conditions: DSC of 10 mg/mL HSA, no polysorbate, MEDI7219 10 mg/mL where ligand
Experimental: Lyophilized protein and MEDI7219 were rehydrated by adding buffer to achieve a concentration of 30 mg/mL, then stored at 5 °C for 72 h or until fully dissolved. Polysorbate solutions were prepared at 3 times higher than the desired concentration to account for dilution in the formulation after mixing with MEDI7219. Polysorbate concentrations in experiments were 0.1× and 1× each polysorbates respective CMC. Samples were produced by adding equal volumes of each component to provide the desired formulation. DSC experiments were conducted using a Microcal PEAQ-DSC instrument from Malvern Panalytical. Prior to each experiment, DSC cells were washed with 2% Decon 90 detergent and then rinsed with ultrapure water. The DSC capillary cell volume was 250 μL for both reference and sample cells; for each experiment, the reference cell contained buffer solution. The sample cell contained the prepared formulation of 10 mg/mL HSA, 10 mg/mL MEDI7219, and the polysorbate concentration being investigated. The scanning temperature range was set at 20–105 °C at a rate of 60 °C/h with a total scan time of 85 min and repeated in triplicate. A reference scan of the buffer solution was conducted under identical conditions and subtracted from each run. Data were analyzed using MicroCal PEAQ-DSC Analysis Software v1.64.

HSA: albumin from human serum, model protein, purchased from Sigma-Aldrich
Tm 1: 63.9 °C and 63.9 (±1.2) °C | Tm 2: 76.3 °C and 76.3 (±0.1) °C | total area (20–105 °C at 60 °C/h): 722 (±43.5) kJ/mol

Values joined by “and” are separate entries in the source; they are usually repeats but may differ in a detail not shown here. Equal entries are not always repeated.
